Literature values in US9700872B1, “Superpolar chromatographic stationary phases and extraction sorbents and their methods of synthesis” (THE FLORIDA INTERNATIONAL UNIVERSITY BOARD OF TRUSTEES, priority 2016, dated 2017).
Only a part of the results on these compounds is given; other tests are left out.

Details: octanol/water; Top 100 EPA Priority Pollutants (Table 2)

SMILES	Log Kow
Cc1ccc([N+](=O)[O-])cc1[N+](=O)[O-]	2
Cc1c([N+](=O)[O-])cccc1[N+](=O)[O-]	2.1
